Values quoted from earlier work as cited in patent US8642009B2, “Diagnostic system for the detection of skin cancer” (priority 2005, dated 2014).

By UniProt entry, the sequences of proteins in these tests, tags left out. Residues count along the entry.
UniProt P05106, 27-788: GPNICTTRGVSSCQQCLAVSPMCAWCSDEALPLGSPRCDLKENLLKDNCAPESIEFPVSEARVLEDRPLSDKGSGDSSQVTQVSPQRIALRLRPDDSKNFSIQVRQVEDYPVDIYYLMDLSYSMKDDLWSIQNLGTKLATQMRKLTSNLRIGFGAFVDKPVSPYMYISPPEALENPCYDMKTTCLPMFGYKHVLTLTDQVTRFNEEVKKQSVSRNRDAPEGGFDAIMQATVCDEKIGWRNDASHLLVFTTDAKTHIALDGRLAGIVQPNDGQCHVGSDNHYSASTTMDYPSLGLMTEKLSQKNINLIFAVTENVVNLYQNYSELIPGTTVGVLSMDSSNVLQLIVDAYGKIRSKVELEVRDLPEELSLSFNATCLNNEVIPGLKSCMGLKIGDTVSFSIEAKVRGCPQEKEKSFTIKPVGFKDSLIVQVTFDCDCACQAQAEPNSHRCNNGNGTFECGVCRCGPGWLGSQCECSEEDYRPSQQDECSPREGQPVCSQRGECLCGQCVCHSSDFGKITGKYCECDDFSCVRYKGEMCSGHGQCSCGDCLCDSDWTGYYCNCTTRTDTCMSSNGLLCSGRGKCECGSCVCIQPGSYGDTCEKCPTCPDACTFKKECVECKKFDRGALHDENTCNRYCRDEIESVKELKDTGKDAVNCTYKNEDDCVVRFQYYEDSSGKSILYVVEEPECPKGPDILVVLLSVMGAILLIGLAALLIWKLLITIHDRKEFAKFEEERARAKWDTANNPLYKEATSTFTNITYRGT
UniProt P06756, 891-1048 partner limits assumed: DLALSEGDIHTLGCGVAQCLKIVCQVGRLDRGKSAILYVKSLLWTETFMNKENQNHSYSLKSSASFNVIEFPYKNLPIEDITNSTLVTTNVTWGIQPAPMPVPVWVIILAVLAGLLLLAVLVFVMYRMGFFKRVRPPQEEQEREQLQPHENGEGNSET
UniProt P06756, 31-889 limits assumed: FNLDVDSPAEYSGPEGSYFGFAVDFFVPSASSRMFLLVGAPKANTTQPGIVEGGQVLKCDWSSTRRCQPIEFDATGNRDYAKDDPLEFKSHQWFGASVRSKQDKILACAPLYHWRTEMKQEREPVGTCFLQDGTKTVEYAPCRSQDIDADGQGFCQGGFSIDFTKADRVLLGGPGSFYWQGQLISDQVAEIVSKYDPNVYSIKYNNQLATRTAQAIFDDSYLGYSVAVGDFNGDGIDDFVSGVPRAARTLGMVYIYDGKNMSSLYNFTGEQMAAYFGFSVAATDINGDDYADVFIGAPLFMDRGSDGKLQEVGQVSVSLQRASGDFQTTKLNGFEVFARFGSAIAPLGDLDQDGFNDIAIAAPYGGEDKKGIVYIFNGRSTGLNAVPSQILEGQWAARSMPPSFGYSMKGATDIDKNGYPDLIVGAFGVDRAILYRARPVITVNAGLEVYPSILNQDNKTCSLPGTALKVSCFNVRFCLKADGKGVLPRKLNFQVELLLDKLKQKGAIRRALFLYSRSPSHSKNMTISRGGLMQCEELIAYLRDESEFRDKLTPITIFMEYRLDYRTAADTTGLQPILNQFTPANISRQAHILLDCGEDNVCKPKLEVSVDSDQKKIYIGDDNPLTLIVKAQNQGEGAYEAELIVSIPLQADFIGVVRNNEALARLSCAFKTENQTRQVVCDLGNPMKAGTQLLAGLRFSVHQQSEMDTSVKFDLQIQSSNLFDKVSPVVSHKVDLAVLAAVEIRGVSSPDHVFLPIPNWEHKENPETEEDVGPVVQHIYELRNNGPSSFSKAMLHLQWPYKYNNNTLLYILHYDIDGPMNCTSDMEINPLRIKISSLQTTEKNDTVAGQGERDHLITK

What was measured:
U87MG human glioblastoma = conditions: U87MG tumour model, 120 min p.i.
αvβ3 = αvβ3 (Homo sapiens, UniProt P05106+P06756)

- Tumour/blood (U87MG human glioblastoma): 36^g ^
- Tumour/muscle (U87MG human glioblastoma): 12^g ^
- IC50 (αvβ3): 48 nM
Substance: DOTA-E[E-c(RGDyK)z]2

Marks after values point to notes of the source that are not given here.
